The values below come from PubChem BioAssay AID2014 (Sanford-Burnham Center for Chemical Genomics, 2009).

By UniProt entry, the sequences of proteins in these tests, tags left out.
UniProt P11940, whole entry: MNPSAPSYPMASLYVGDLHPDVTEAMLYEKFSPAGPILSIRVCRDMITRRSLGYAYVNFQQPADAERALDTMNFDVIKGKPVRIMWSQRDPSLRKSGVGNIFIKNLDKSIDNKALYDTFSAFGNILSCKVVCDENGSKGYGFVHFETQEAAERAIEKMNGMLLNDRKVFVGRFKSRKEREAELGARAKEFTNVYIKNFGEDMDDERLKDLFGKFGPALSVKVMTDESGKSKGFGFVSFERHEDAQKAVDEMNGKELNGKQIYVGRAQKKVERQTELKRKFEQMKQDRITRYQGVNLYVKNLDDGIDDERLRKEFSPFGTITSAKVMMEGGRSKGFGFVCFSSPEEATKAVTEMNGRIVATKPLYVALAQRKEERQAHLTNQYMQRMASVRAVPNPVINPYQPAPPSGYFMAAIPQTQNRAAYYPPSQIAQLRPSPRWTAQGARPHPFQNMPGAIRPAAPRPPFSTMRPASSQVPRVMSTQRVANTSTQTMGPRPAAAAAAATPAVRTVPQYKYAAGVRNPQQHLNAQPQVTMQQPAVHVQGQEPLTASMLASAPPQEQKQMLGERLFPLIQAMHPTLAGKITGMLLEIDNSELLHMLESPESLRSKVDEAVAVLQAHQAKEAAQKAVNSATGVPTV

The term inhibition denotes the relative decrease from the control value, in per cent.

The entries are a selection whose mix differs from that of the whole data set. Calls of active or inactive are those of the source. No rule for the calls is given here.

For this assay, the target named is Polyadenylate-binding protein 1 (Homo sapiens) (UniProt P11940). Briefly: PABP poly(A) RNA binding inhibitors, primary screen, biochemical, fluorescence polarization, uHTS (AID 2014). Particulars: at 35 µM, stronger effect = higher value.
`COc1cc(C(=O)NCC2(N3CCCCC3)CCCCC2)ccc1OC(F)F`: the inhibition was inactive: 33.5%.
Turning to `O=C(NCC1(N2CCOCC2)CCCCC1)c1cc(=O)[nH]c2ccccc12`, the inhibition was inactive: -4%.
Next, `CN1CCN(CCOC(=O)C(O)(c2ccccc2)c2ccccc2)CC1`: inactive: 9.8%; `COc1ccc(NC2CCN(C(=O)OC(C)(C)C)CC2)cc1`: inactive: 6.5%.
As for `O=C(NCC1(N2CCCCC2)CCCCC1)c1cccc(C(F)(F)F)c1`, the inhibition was inactive: 8.6%.
Regarding `CCN1CCC(Nc2ccc(Cl)cc2)CC1`, the inhibition was inactive: -4.6%.
In the case of `N#CC1(Nc2ccccc2)CCN(CCc2ccccc2)CC1`, the inhibition is inactive: -7.9%.
Take `O=C(NCC1(N2CCCCC2)CCCCC1)c1cccc([N+](=O)[O-])c1`: the inhibition was inactive: 1.2%.
Next, `O=C(NCC1(N2CCCCC2)CCCCC1)c1ccc(OC(F)F)cc1`: inactive: 5.4%; `CCCOc1ccc(C(=O)NCC2(N(C)C)CCCCC2)cc1OC`: inactive: 4%.
`COc1cc(OC)c(C(=O)NCC2(N(C)C)CCCCC2)cc1OC`: the inhibition was inactive: 3.2%.
In the case of `CC(C)c1ccc(NC2CCN(C(=O)OC(C)(C)C)CC2)cc1`, the inhibition was inactive: -4.7%.
The figure for `COc1ccc(CN(CCCl)CCCl)cc1Cl` is active: 63.9%; for `CN(C)c1cccc(C(=O)NCC2(N3CCCCC3)CCCCC2)c1` it is inactive: -6%; for `O=C(OC1CN2CCC1CC2)C1c2ccccc2Oc2ccccc21` (centres undefined) it is inactive: -6.1%.
On to `N#CC1(Nc2ccccc2)CCN(Cc2ccccc2)CC1`, for which the inhibition was inactive: -10.4%.
Consider `CCOC(=O)N1CCC(Nc2ccc(OC)cc2)CC1`, for which the inhibition was inactive: 18.7%.
Take `Cc1cc(C)cc(N(C(=O)c2ccccc2)C2CCN(C(=O)OC(C)(C)C)CC2)c1`: the inhibition is inactive: 6.6%.
In the case of `O=C(NCC1(N2CCOCC2)CCCCC1)c1cc2ccccc2o1`, the inhibition is inactive: 6.8%.
On to `CSc1ccccc1C(=O)NCC1(N2CCCCC2)CCCCC1`, for which the inhibition was inactive: 8.6%.
With `COc1ccc(C(=O)NCC2(N3CCCCC3)CCCCC2)cc1`, the inhibition is inactive: 3.3%.
As for `CC(C)(C)OC(=O)N1CCC(N(C(=O)c2ccccc2)c2ccc(F)cc2)CC1`, the inhibition was inactive: 3.8%.
Next, `COc1ccc(C(=O)NCC2(N3CCCCC3)CCCCC2)c(OC)c1OC`: inactive: -2.8%; `O=C(NCC1(N2CCCCC2)CCCCC1)c1ccc(=O)[nH]c1`: inactive: -2.2%.
Consider `COc1cc(C(=O)NCC2(N(C)C)CCCCC2)ccc1OC(F)F`, for which the inhibition is inactive: -5.1%.
Regarding `CCOC(=O)N1CCC(Nc2cccc(C)c2)CC1`, the inhibition is inactive: -9.2%.
With `Cc1ccc(OCC(C)C)c(CN(CCCl)CCCl)c1`, the inhibition was active: 71.4%.
On to `O=C(NCC1(N2CCCCC2)CCCCC1)c1ccc(F)cc1`, for which the inhibition was inactive: 5.3%.
For `COc1ccc(NC2CCN(CCc3ccccc3)CC2)c(OC)c1`, the inhibition was inactive: 20%.
Regarding `CCOC(=O)N1CCC(Nc2ccc(F)cc2)CC1`, the inhibition was inactive: 4.1%.
Consider `CCOc1ccc(C)cc1CN(CCCl)CCCl`, for which the inhibition was active: 72.4%.
As for `CN(C)c1ccc(C(=O)NCC2(N3CCCCC3)CCCCC2)cc1`, the inhibition is inactive: -2.5%.
Regarding `CCN1CCC(Nc2cccc(F)c2)CC1`, the inhibition is inactive: -1.5%.
Turning to `Fc1ccccc1NC1CCN(Cc2ccccc2)CC1`, the inhibition was inactive: 15.2%.
For the molecule `COc1cc(OC)cc(C(=O)NCC2(N3CCCCC3)CCCCC2)c1`, the inhibition was inactive: -4.7%.
As for `CN1CCC(Nc2ccc(Cl)cc2)CC1`, the inhibition was inactive: -3.6%.
Regarding `CCCOc1ccc(C)cc1CN(CCCl)CCCl`, the inhibition was active: 74.4%.
Take `COc1cc(OC)cc(C(=O)NCC2(N3CCOCC3)CCCCC2)c1`: the inhibition was inactive: -5.7%.
For the molecule `COc1cccc(C(=O)N(c2cc(C)cc(C)c2)C2CCN(C(=O)OC(C)(C)C)CC2)c1`, the inhibition is inactive: 8.2%.
Next, `CCC(CO)(C(=O)OC1CN2CCC1CC2)c1ccccc1` (centres undefined): inactive: 4.3%; `CC(C)(C)OC(=O)N1CCC(Nc2ccccc2)CC1`: inactive: 1.2%.
The figure for `O=C(O)C1(Nc2ccccc2)CCN(Cc2ccccc2)CC1` is inactive: 0.1%; for `CCCOc1ccc(C(=O)NCC2(N(C)C)CCCCC2)cc1` it is inactive: -0.1%; for `CCOc1ncccc1C(=O)NCC1(N2CCOCC2)CCCCC1` it is inactive: 8.8%.
On to `CN1CCC(Nc2ccc(F)c(Cl)c2)CC1`, for which the inhibition is inactive: -4.9%.
Turning to `O=C(OC1CN2CCC1CC2)C1c2ccccc2C=Cc2ccccc21` (centres undefined), the inhibition is inactive: -9.4%.
As for `CCOC(=O)N1CCC(Nc2ccc(C)cc2)CC1`, the inhibition is inactive: 10.9%.
Next, `N/C(=N\O)c1c(N)no[n+]1[O-]`: inactive: -0.9%.
`COc1ccc(C(=O)NCC2(N3CCOCC3)CCCCC2)cc1OC`: the inhibition was inactive: -5.9%.
Next, `CN(C)C1(CNC(=O)c2cccc(C#N)c2)CCCCC1`: inactive: -8.5%; `c1ccc(CN2CCC(Nc3ccccc3)CC2)cc1`: inactive: 0.2%.
Turning to `CCCN1CCC(Nc2cc(OC)cc(OC)c2)CC1`, the inhibition was inactive: 54.1%.
Take `N#Cc1ccc(C(=O)NCC2(N3CCCCC3)CCCCC2)cc1`: the inhibition is inactive: -18.5%.
As for `CC(C)(C)OC(=O)N1CCC(N(C(=O)c2ccccc2)c2ccc(Cl)cc2)CC1`, the inhibition was inactive: -4.7%.
